# Assay results from ChEMBL document CHEMBL1123089, “Reactivators of organophosphorus-inhibited acetylcholinesterase. 1. Imidazole oxime derivatives” (1985).
# What was measured:
# [1] = pKa value was determined
# [2] = test system: Electrophorus electricus; test: In vitro reactivating potency against TEPP-inhibited acetylcholinesterase (AcChE)
SMILES,pKa [1],Activity [2]
CCOc1ccc(-n2cc(/C=N/O)[n+](C)c2)cc1.[I-],9.44,
CCn1cc(/C=N/O)[n+](C)c1SC.[I-],9.56,0.0176 M
C[n+]1cn(-c2ccccc2)cc1/C=N/O.[I-],9.49,0.0335 M
COc1ccc(-n2cc(/C=N/O)[n+](C)c2)cc1.[I-],9.43,
COc1ccc(-n2cc(/C=N/O)[n+](C)c2SC)cc1.[I-],9.38,
CSc1n(-c2ccccc2)cc(/C=N/O)[n+]1C.[I-],9.3,
CCOc1ccc(-n2cc(/C=N/O)[n+](C)c2SC)cc1.[I-],9.12,0.0235 M
CCn1cc(/C=N/O)[n+](C)c1.[I-],9.57,0.0305 M
CSc1n(-c2ccc(C)cc2)cc(/C=N/O)[n+]1C.[I-],9.04,0.0235 M
C[n+]1ccccc1C=NO.[I-],,0.1 M
Cc1ccc(-n2cc(/C=N/O)[n+](C)c2)cc1.[I-],9.4,0.0453 M
C=CCn1cc(/C=N/O)[n+](C)c1SC.[I-],9.24,
C=CCn1cc(/C=N/O)[n+](C)c1.[I-],9.56,0.0571 M
C=CCn1cc(/C=N\O)[n+](C)c1SC.[I-],9.42,0.0464 M
